Reference: ChEMBL document CHEMBL1156469 (2007)

Legend:
Type in all cases: functional
Osteoblast [1] = test: Effect on glyceraldehyde-3-phosphate dehydrogenase gene expression in rat primary osteoblast cells assessed as expression ratio of treated to untreated control by microarray analysis
Osteoblast [2] = test: Effect on procollagen 7 alpha 1 gene expression in rat primary osteoblast cells assessed as expression ratio of treated to untreated control by microarray analysis
Osteoblast [3] = test: Effect on procollagen 8 alpha 1 gene expression in rat primary osteoblast cells assessed as expression ratio of treated to untreated control by microarray analysis
Osteoblast [4] = test: Effect on integrin alpha 3 gene expression in rat primary osteoblast cells assessed as expression ratio of treated to untreated control by microarray analysis
Osteoblast [5] = test: Effect on fibroblast growth factor 3 gene expression in rat primary osteoblast cells assessed as expression ratio of treated to untreated control by microarray analysis
Osteoblast [6] = test: Effect on bone morphogenetic protein 7 gene expression in rat primary osteoblast cells assessed as expression ratio of treated to untreated control by microarray analysis
Osteoblast [7] = test: Effect on integrin alpha M gene expression in rat primary osteoblast cells assessed as expression ratio of treated to untreated control by microarray analysis
Osteoblast [8] = test: Effect on procollagen 11alpha 1 gene expression in rat primary osteoblast cells assessed as expression ratio of treated to untreated control by microarray analysis
Osteoblast [9] = test: Effect on transforming growth factor beta 2 gene expression in rat primary osteoblast cells assessed as expression ratio of treated to untreated control by microarray analysis
Osteoblast [10] = test: Effect on procollagen 12alpha 1 gene expression in rat primary osteoblast cells assessed as expression ratio of treated to untreated control by microarray analysis
Osteoblast [11] = test: Effect on bone morphogenetic protein 4 gene expression in rat primary osteoblast cells assessed as expression ratio of treated to untreated control by microarray analysis
Osteoblast [12] = test: Effect on MAD homolog 9 gene expression in rat primary osteoblast cells assessed as expression ratio of treated to untreated control by microarray analysis
Osteoblast [13] = test: Effect on transforming growth factor beta receptor 2 gene expression in rat primary osteoblast cells assessed as expression ratio of treated to untreated control by microarray analysis
Osteoblast [14] = test: Effect on procollagen 2 alpha 1 gene expression in rat primary osteoblast cells assessed as expression ratio of treated to untreated control by microarray analysis
Osteoblast [15] = test: Effect on bone morphogenetic protein receptor 1A gene expression in rat primary osteoblast cells assessed as expression ratio of treated to untreated control by microarray analysis
Osteoblast [16] = test: Effect on ribosomal protein L13a gene expression in rat primary osteoblast cells assessed as expression ratio of treated to untreated control by microarray analysis
Osteoblast [17] = test: Effect on procollagen 19-alpha 1 gene expression in rat primary osteoblast cells assessed as expression ratio of treated to untreated control by microarray analysis

## Oc1ccc(/C=C/c2cc(O)cc(O)c2)cc1 [RESVERATROL]
Osteoblast [1]
  Ratio: 1.04
Osteoblast [2]
  Ratio: 2.39
Osteoblast [3]
  Ratio: 3.56
Osteoblast [4]
  Ratio: 3.75
Osteoblast [5]
  Ratio: 1.51
Osteoblast [6]
  Ratio: 3.05
Osteoblast [7]
  Ratio: 1.51
Osteoblast [8]
  Ratio: 2.64
Osteoblast [9]
  Ratio: 1.67
Osteoblast [10]
  Ratio: 3.39
Osteoblast [11]
  Ratio: 3.75
Osteoblast [12]
  Ratio: 1.77
Osteoblast [13]
  Ratio: 1.91
Osteoblast [14]
  Ratio: 2.64
Osteoblast [15]
  Ratio: 3.05
Osteoblast [16]
  Ratio: 1.04
Osteoblast [17]
  Ratio: 2.02
